Experimental findings from ChEMBL document CHEMBL3593212, “Synthesis and evaluation of novel 1H-pyrrolo[2,3-b]pyridine-5-carboxamide derivatives as potent and orally efficacious immunomodulators targeting JAK3” (Bioorg Med Chem, 2015) are described below.

Protein sequences, listed by entry. Tags and fused reporters are not part of them. Lines headed by an entry give the natural chain unless they say otherwise; changes in a name come on top.
UniProt P23458: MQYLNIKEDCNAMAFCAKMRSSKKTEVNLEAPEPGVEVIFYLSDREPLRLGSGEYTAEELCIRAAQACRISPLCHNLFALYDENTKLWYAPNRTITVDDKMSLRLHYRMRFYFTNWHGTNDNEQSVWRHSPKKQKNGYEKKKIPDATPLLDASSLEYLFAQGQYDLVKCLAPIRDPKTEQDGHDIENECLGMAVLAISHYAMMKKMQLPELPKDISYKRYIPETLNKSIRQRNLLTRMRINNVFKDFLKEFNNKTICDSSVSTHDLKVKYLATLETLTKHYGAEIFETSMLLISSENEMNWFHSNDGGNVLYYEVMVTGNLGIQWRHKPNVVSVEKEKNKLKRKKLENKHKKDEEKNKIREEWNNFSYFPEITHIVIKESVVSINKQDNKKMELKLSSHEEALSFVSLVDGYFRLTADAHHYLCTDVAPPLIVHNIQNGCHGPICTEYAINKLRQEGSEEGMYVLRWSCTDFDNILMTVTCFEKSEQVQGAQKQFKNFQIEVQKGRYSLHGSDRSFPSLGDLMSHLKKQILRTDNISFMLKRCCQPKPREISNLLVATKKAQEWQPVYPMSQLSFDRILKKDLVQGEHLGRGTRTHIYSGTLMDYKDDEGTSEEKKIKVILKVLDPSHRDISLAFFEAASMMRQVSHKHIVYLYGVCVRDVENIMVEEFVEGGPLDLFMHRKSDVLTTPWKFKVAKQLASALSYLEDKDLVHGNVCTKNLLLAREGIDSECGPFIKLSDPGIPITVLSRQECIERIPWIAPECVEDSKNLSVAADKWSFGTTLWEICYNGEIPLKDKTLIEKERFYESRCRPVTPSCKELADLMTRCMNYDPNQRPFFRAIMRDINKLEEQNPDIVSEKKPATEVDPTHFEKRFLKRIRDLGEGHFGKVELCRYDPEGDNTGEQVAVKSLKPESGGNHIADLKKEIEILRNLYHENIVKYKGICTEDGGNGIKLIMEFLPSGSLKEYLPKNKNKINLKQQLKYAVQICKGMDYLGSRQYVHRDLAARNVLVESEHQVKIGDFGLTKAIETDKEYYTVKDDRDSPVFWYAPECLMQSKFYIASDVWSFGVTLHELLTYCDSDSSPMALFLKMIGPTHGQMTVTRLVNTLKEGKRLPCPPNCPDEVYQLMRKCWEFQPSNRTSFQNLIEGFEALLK

A word on the IC50: it is the concentration at which inhibition is half-maximal.

The target in the test is Tyrosine-protein kinase JAK1 (Homo sapiens, UniProt P23458). The test is described as follows: Inhibition of human JAK1 kinase domain using biotin-Lyn-substrate-2 as substrate incubated for 1 hr by ELISA method.

Each structure is given as a SMILES string.

In turn, `NC(=O)c1cnc2[nH]ccc2c1NC1CCN(Cc2ccccc2)CC1` gave a half-maximal inhibitory concentration (IC50) of 0.084 µM. This lies in the double-digit nanomolar range.
